Reference: ChEMBL document CHEMBL1156941, “Discovery of small molecule isozyme non-specific inhibitors of mammalian acetyl-CoA carboxylase 1 and 2” (Bioorg Med Chem Lett, 2010)

Target: Acetyl-CoA carboxylase 1 (Rattus norvegicus, UniProt P11497)
Test: Inhibition of rat liver ACC1 after 7 mins by liquid scintillation counter

Row | SMILES | IC50 [nM]
1 | Cc1ccc2cc(CC3CCN(C(=O)c4c5ccccc5cc5ccccc45)CC3)ccc2n1 | 325
2 | O=C(c1c2ccccc2cc2ccccc12)N1CCC(N2CCC[C@@H](C(=O)N3CCOCC3)C2)CC1 | 92
